Values of other authors as cited in patent US12576169B2, “Silicon-fluoride acceptor substituted radiopharmaceuticals and precursors thereof” (Technische Universität München, priority 2019, dated 2026).

By UniProt entry, the sequences of proteins in these tests, tags left out. Residues count along the entry.
UniProt P02768, 25-609: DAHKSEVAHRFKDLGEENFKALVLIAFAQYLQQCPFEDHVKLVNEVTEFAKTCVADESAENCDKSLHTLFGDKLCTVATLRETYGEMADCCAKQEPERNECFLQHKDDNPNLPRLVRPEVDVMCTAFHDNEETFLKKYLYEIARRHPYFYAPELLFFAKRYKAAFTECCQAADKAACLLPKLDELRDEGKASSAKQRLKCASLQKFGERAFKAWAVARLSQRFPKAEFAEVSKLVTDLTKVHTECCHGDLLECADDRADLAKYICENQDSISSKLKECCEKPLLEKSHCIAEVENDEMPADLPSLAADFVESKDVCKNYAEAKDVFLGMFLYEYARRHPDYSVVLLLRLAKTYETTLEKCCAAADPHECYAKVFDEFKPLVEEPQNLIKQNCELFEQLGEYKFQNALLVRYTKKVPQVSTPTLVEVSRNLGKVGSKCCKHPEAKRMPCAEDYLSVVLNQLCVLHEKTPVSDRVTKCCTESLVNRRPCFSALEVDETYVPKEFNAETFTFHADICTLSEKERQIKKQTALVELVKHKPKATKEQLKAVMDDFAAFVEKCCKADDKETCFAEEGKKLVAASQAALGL

Molecular target: HSA (Homo sapiens, UniProt P02768)
Conditions: cited from earlier work

Which results are given for `NC(=O)N1c2ccccc2C=Cc2ccccc21` [Carbamazepine]?
Lit. HSA binding (literature values (Yamazaki, Kanaoka 2004)): 75.00%; Log K HSA (logarithmic K of HSA binding literature values): 0.4601
